This test has as its system GABA (non-selective). Briefly: PubChem AID 652083. The conditions noted are these: CEREP radioligand binding panel, % inhibition at 10 uM, active compounds read high.

In PubChem BioAssay AID652083 (The Scripps Research Institute Molecular Screening Center, 2013) one finds inhibition of specific binding data, which are given here for one molecule.

The other results are listed elsewhere or left out. The source made the active and inactive calls.

As for `COC(=O)c1cc(Br)cnc1N1CCC(NC2CCCCC2)C(O)C1` (stereo unspecified), the inhibition of specific binding was inactive: -14%.
